Results reported in US5849525A, “Compositions corresponding to a proton-coupled peptide transporter and methods of making and using same” (Brigham and Women's Hospital, Inc., priority 1995, dated 1998).

Biological target: T1, proton-coupled peptide transporter (Oryctolagus cuniculus, UniProt P36836)
T1 construct: Xenopus laevis oocytes were injected with cRNA coding the proton-coupled peptide transporter; expressed in transfected cells; host or cells: Xenopus laevis oocytes injected with cRNA transcribed in vitro from the cloned cDNA
T1 sequence (P36836 1-707): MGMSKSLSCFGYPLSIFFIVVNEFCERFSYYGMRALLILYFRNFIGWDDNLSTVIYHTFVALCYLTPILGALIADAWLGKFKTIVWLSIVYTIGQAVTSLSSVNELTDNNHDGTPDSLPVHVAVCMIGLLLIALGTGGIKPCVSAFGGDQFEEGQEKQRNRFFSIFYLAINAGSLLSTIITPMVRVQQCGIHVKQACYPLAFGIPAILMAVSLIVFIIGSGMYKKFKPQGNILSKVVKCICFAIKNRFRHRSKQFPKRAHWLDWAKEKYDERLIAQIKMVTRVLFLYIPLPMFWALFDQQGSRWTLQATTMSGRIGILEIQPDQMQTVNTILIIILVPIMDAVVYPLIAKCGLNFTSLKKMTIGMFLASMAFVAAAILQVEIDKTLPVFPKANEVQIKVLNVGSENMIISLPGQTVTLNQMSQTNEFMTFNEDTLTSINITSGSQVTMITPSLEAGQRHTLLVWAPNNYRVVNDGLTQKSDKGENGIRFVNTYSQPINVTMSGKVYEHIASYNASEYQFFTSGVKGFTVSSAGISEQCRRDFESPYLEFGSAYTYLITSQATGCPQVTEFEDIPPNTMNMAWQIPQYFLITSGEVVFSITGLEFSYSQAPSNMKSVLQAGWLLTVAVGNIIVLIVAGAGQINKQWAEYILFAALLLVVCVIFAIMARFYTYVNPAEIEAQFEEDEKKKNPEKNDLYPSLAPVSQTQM
Assay: Two-electrode voltage clamp of Xenopus laevis oocytes injected with transporter cRNA: substrate-evoked inward currents and Km
Assay type: cell-based, rabbit
Conditions: uptake solution pH 5.5
Text: These oocytes were subjected to two electrode voltages clamp analysis (Gene Clamp 500, Axon Instruments, California) in the manner described in Kanaisy & Hediger, M. A. Nature 360, 467-71 (1992).
FIG. 9 depicts electrophysiological measurements of transformed cocytes as a percent of glycyl-sarcosine evoked current. Data representing glycyl-sarcosine are depicted as a solid black bar. Data representing peptide are depicted with dotted bars. Data representing antibiotics are depicted with hatched bars.
By altering peptide concentrations, current amplitudes for different compositions, Km values were determined.

C[C@H](N)C(=O)N1CCC[C@H]1C(=O)NCC(=O)O [alanylprolinyl-glycine]
substrate-evoked inward current: inward current
